1 substance from patent publication US20180360881A1, “Compositions and Methods for Treatment of Her2 Positive Metastatic Breast Cancer” (NANT HOLDINGS IP, LLC, priority 2015, published 2018) can be followed below.

The test concerns MDA-MB-453 cells. The test is described as follows: haNK cells plus trastuzumab in mouse model of HER2-positive breast cancer: tumor volume, T/C. Type of test: in vivo, female NOD-SCID IL2Rgamma^null (NSG) mice. The settings on record: for T/C value: day 29. From the text:
In a second exemplary treatment method to determine efficacy of haNK cells in combination with trastuzumab in a mouse model of HER2-positive breast cancer, the inventors used haNK cells as described previously. The haNK cells were developed by transfecting a parental aNK cell line with a bicistronic plasmid vector containing the high affinity V variant of CD16 (having valine at position 158) and an intracellularly-retained IL-2, which enables haNK cells to grow in the absence of exogenous IL-2. The plasmid contained some human origin sequences for CD16 and IL-2, neither of which have any transforming properties.
MDA-MB-453 cells (0.1 mL of 1×10^8/mL in 50% Matrigel) were injected subcutaneously into the left and right flank area of female NOD-SCID IL2Rgamma^null (NSG, Jackson Laboratory) mice (7 to 8 weeks old). When tumors reached about 100 mm^3, the mice were randomly assigned to one of ten groups of four mice/group as noted in FIG. 4A and dosed intravenously in the tail vein with saline (PBS), IgG1 (in 1 gm/kg and 3 mg/kg doses), trastuzumab (in 1 gm/kg and 3 mg/kg doses), haNK Cells as described previously (1×10^7 cells), combined IgG1 and haNK Cells treatment (IgG1 in 1 gm/kg and 3 mg/kg doses), and combined trastuzumab and haNK Cells treatment (trastuzumab in 1 gm/kg and 3 mg/kg doses). As depicted in FIG. 4F, the IgG1 and trastuzumab control groups received doses once per week for four weeks, while the saline, haNK Cells, and combined IgG1/trastuzumab and haNK Cells treatment regiments antibodies were administered once per week for four weeks and the haNK Cells were administered twice per week for four weeks. In the combined treatments, the mice received the antibody dose at least 3 hours prior to the injection of haNK cells.
Tumor growth and animal weights were measured twice weekly, as recorded in FIGS. 4B-4F. Statistical analyses of the difference in tumor volume or body weight change among the groups were evaluated using two-way ANOVA with repeated measures followed by the Bonferroni test, as reported in FIG. 4F (P-value). All the data were analyzed using GraphPad Prism software version 5. P<0.05 was considered to be statistically significant. The reported T/C (%) of FIG. 4F is ΔT/ΔC×100, where the ΔT and ΔC are the changes in the mean tumor volumes between day 29 and the first day of measurement for the treatment and control groups, respectively. The MWL is the maximum animal body weight loss over for the observed treatment cycle.

For “trastuzumab: antibody with binding specificity for HER2”, the “net change in tumor size” value (control and 1 mg/kg antibody groups) was “net-reduction in tumor size”. The T/C value (antibody 1 mg/kg i.v. once per week for four weeks (haNK 1×10^7 cells twice per week where combined)) is recorded as −34.5% and the T/C value (antibody 3 mg/kg i.v. once per week for four weeks (haNK 1×10^7 cells twice per week where combined)) is −95.2%. Further, the tumor reduction result (trastuzumab 3 mg/kg, alone versus combined with haNK Cells) is “approximately the same tumor reduction”.
